One assay addresses PIM1 (Homo sapiens (Human), UniProt P11309). In kind it is biochemical. As to conditions: 10 μM ATP, 90 min, room temperature; read-out: PIM1 LC3K (KI). As for the experimental part: A fluorescent-labeled Pim-specific peptide substrate, was custom synthesized by American Peptide Company (Sunnyvale, Calif.). Reaction Buffer contained 10 mM HEPES, pH 7.2, 10 mM MgCl2, 0.01% Tween 20, 2 mM DTT. Termination Buffer contained 190 mM HEPES, pH 7.2, 0.015% Brij-35, 0.2% Coating Reagent 3 (Caliper Life Sciences, Hopkinton, Mass.), 20 mM EDTA. Separation Buffer contained 100 mM HEPES, pH 7.2, 0.015% Brij-35, 0.1% Coating Reagent 3, 1:200 Coating Reagent 8 (Caliper Life Sciences, Hopkinton, Mass.), 10 mM EDTA and 5% DMSO.
PIM reactions were carried out in a final volume of 10 μL per well in a 384-well plate. […] After 90 minutes of incubation at room temperature, the phosphorylation reaction was stopped by the addition of 10 μL Termination Buffer. The product and substrate in each independent reaction were separated on a 12-sipper microfluidic chip (Caliper Life Sciences, Hopkinton, Mass.) run on a Caliper LC3000® (Caliper Life Sciences, Hopkinton, Mass.). The separation of product and substrate was optimized by choosing voltages and pressure using Caliper's Optimizer software (Hopkinton, Mass.). The separation conditions used a downstream voltage of −500V, an upstream voltage of −2150V, and a screening pressure of −1.2 psi. […] Substrate conversion was calculated from the electropherogram using HTS Well Analyzer software (Caliper Life Sciences, Hopkinton, Mass.). Ki values for the test compound were calculated.

The chains behind the UniProt entries cited, without tags or fusion partners.
UniProt P11309, whole entry: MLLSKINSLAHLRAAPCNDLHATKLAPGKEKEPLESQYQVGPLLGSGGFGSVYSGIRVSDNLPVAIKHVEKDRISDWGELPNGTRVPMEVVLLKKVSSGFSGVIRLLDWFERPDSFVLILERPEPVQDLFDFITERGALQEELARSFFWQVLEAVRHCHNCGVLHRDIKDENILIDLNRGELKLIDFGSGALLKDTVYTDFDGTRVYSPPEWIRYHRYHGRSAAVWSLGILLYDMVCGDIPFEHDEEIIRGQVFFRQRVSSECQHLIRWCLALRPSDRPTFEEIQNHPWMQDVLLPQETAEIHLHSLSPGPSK

The subject of a further assay is BaF3 PIM1 cells. The experiment in a line: In vitro cell proliferation potency assay (Cell Titer Glo), BaF3 PIM1 cells. It is filed as cell-based, murine. As to conditions: read-out: Prolif BaF3_PIM 1 (IC50). On the procedure: BaF3 parental line was obtained from the DSMZ repository. BaF3 lines transfected with PIM1 or PIM2 were generated. Mouse IL-3 was purchased from R&D Systems. G418 was purchased from Clontech. Media for BaF3 parental line contained RPMI, 10% FBS, 2 mM L-Glutamine, 2 ng/mL mIL-3. Media for BaF3 PIM1 & 2 lines contained RPMI, 10% FBS, 2 mM L-Glutamine, […]. Media for MM1.S (multiple myeloma cells) line contained RPMI, 10% FBS, 2 mM L-Glutamine.
BaF3, a murine interleukin-3 dependent pro-B cell line, parental cells, BaF3 PIM1 cells, BaF3 PIM2 cells, and MM1.S (multiple myeloma) cells were seeded at 2 k/well, 5 k/well, 5 k/well, and 10 k/well respectively, in a 384-well plate, at 45 μL/well. Test compound was added at 5 μL/well. BaF3 cells (parental and transfected) were incubated overnight, while MM1.S cells were incubated for 72 hours at 37° C., 5% CO2. CELL TITER GLO® Reagent (Promega) was added at 50 μL/well, the plates were incubated for 30 minutes, and their luminescence read on an HT Analyst. IC50/EC50 values for the test compound were calculated.
In general terms: Cellular ATP, detected with luciferase, serves as a proxy for viable cell number.

Setting [1] is: Mus musculus, BaF3, BaF3 cells transfected with PIM1, incubated overnight.
The mark [2] stands for this setting: BaF3 cells transfected with PIM1, incubated overnight.

The text below walks through data of patent US9434725B2, “5-azaindazole compounds and methods of use” (priority 2012, dated 2016).

Like-named read-outs stand apart in the source and are kept apart here.

For orientation: Ki means the equilibrium dissociation constant of an inhibitor or competing ligand from its target. Usually IC50 stands for the midpoint of a concentration-inhibition curve.

As for `CCc1cncc(-c2cc3c(cn2)cnn3-c2cccc(N3CCNC[C@H](O)C3)n2)c1` (single isomer, unassigned) [Compound 121], on PIM1, the inhibition constant (Ki) came to 0.16 nM. As to `CCc1cncc(-c2cc3c(cn2)cnn3-c2cccc(N3CCNC[C@@H](O)C3)n2)c1` (single isomer, unassigned) [Compound 122], the IC50 in the assay on BaF3 PIM1 cells (setting [1]) came out at 71.5 nM. Further, the Ki on PIM1 was 0.056 nM. On to `Cc1cncc(-c2cc3c(cn2)cnn3-c2cccc(N3CCCC(N)C3C)n2)n1` (single isomer, unassigned) [Compound 203, 2-methyl-1-[6-[6-(6-methylpyrazin-2-yl)pyrazolo[4,3-c]pyridin-1-yl]-2-pyridyl]piperidin-3-amine], for which, in the assay with BaF3 PIM1 cells (setting [2]), the IC50 was 2000 nM. Moreover, the inhibitory constant (Ki) on PIM1 is 0.375 nM. The corresponding values for `Cc1cncc(-c2cc3c(cn2)cnn3-c2cccc(N3CCCC(N)C3C)n2)n1` (single isomer, unassigned) [Compound 204, 2-methyl-1-[6-[6-(6-methylpyrazin-2-yl)pyrazolo[4,3-c]pyridin-1-yl]-2-pyridyl]piperidin-3-amine] are 693 nM and 0.034 nM. The corresponding values for `Cc1cncc(-c2cc3c(cn2)cnn3-c2cccc(C3CCCC(N)C3)n2)n1` (single isomer, unassigned) [Compound 213, 3-[6-[6-(6-methylpyrazin-2-yl)pyrazolo[4,3-c]pyridin-1-yl]-2-pyridyl]cyclohexanamine] are 317 nM and 0.048 nM. Turning to `CCn1cc(-c2cc3c(cn2)cnn3-c2cccc(N3CCNCC3)n2)cn1` [Compound 101, 6-(1-ethylpyrazol-4-yl)-1-(6-piperazin-1-yl-2-pyridyl)pyrazolo[4,3-c]pyridine], in the assay with BaF3 PIM1 cells (setting [1]), the half-maximal inhibitory concentration (IC50) was 1700 nM. Moreover, the Ki on PIM1 was 0.817 nM. The corresponding values for `CC(C)c1cncc(-c2cc3c(cn2)cnn3-c2cccc(N3CCCNCC3)n2)c1` [Compound 103, 1-(6-(1,4-diazepan-1-yl)pyridin-2-yl)-6-(5-isopropylpyridin-3-yl)-1H-pyrazolo[4,3-c]pyridine] are 1200 nM and 0.032 nM. The corresponding values for `CC(C)c1cncc(-c2cc3c(cn2)cnn3-c2cccc(N3CCNCC3)n2)c1` [Compound 105, 6-(5-isopropylpyridin-3-yl)-1-(6-(piperazin-1-yl)pyridin-2-yl)-1H-pyrazolo[4,3-c]pyridine] are 1600 nM and 0.124 nM. For the compound `CC(C)c1cncc(-c2cc3c(cn2)cnn3-c2cccc(N3CCC[C@@H](N)C3)n2)c1` [Compound 107, (R)-1-(6-(6-(5-isopropylpyridin-3-yl)-1H-pyrazolo[4,3-c]pyridin-1-yl)pyridin-2-yl)piperidin-3-amine], the IC50 in the assay on BaF3 PIM1 cells (setting [1]) turned out to be 2400 nM. For `CC(C)c1cncc(-c2cc3c(cn2)cnn3-c2cccc(N3CCC[C@H](N)C3)n2)c1` [Compound 108, (3S)-1-[6-[6-(5-isopropyl-3-pyridyl)pyrazolo[4,3-c]pyridin-1-yl]-2-pyridyl]piperidin-3-amine], the half-inhibitory concentration (IC50) with BaF3 PIM1 cells (setting [1]) came out at 4500 nM. Also, the inhibitory constant (Ki) at PIM1 amounted to 0.1 nM. For `Cc1cc(-c2cc3c(cn2)cnn3-c2cccc(N3CCCNCC3)n2)sn1` [Compound 120, 5-[1-[6-(1 4-diazepan-1-yl)-2-pyridyl]pyrazolo[4,3-c]pyridin-6-yl]-3-methyl-isothiazole], in that order: 1400 nM and 0.225 nM. The corresponding values for `CCc1cncc(-c2cc3c(cn2)cnn3-c2ccc(C3CC3)c(N3CCC[C@H](N)C3)n2)c1` [Compound 139, (S)-1-(3-cyclopropyl-6-(6-(5-ethylpyridin-3-yl)-1H-pyrazolo[4,3-c]pyridin-1-yl)pyridin-2-yl)piperidin-3-amine] are 2300 nM and 0.033 nM. Regarding `Cc1cncc(-c2cc3c(cn2)cnn3-c2cccc(N3CCCNCC3)n2)c1` [Compound 141, 1-(6-(1,4-diazepan-1-yl)pyridin-2-yl)-6-(5-methylpyridin-3-yl)-1H-pyrazolo[4,3-c]pyridine], the IC50 with BaF3 PIM1 cells (setting [1]) came to 1000 nM. Moreover, the inhibitory constant (Ki) at PIM1 stood at 0.085 nM.

In the case of `c1cc(N2CCNCC2)nc(-n2ncc3cnc(-c4cnccn4)cc32)c1` [Compound 144, 1-(6-piperazin-1-yl-2-pyridyl)-6-pyrazin-2-yl-pyrazolo[4,3-c]pyridine], the IC50 in the assay with BaF3 PIM1 cells (setting [1]) turned out to be 385 nM. At PIM1, the inhibitory constant (Ki) amounted to 0.177 nM. The corresponding values for `CCc1cncc(-c2cc3c(cn2)cnn3-c2cccc(N3CCCNCC3)n2)n1` [Compound 150, 1-[6-(1 4-diazepan-1-yl)-2-pyridyl]-6-(6-ethylpyrazin-2-yl)pyrazolo[4 3-c]pyridine] are 196 nM and 0.021 nM.

Turning to `CCn1cncc(-c2cc3c(cn2)cnn3-c2cccc(N3CCNCC3)n2)c1=O` [Compound 151, 3-ethyl-5-[1-(6-piperazin-1-yl-2-pyridyl)pyrazolo[4,3-c]pyridin-6-yl]pyrimidin-4-one], the concentration for half-maximal inhibition (IC50) in the assay with BaF3 PIM1 cells (setting [1]) is 544 nM. Moreover, the Ki on PIM1 came out at 0.181 nM.

As to `FCCn1cc(-c2cc3c(cn2)cnn3-c2cccc(N3CCCNCC3)n2)cn1` [Compound 153, 1-(6-(1,4-Diazepan-1-yl)pyridin-2-yl)-6-(1-(2-fluoroethyl)-1H-pyrazol-4-yl)-1H-pyrazolo[4,3-c]pyridine], in the assay with BaF3 PIM1 cells (setting [1]), the half-inhibitory concentration (IC50) is 291 nM. Further, the Ki at PIM1 was determined as 0.095 nM. For `FC(F)(F)Cn1cc(-c2cc3c(cn2)cnn3-c2cccc(N3CCCNCC3)n2)cn1` [Compound 154, 1-(6-(1,4-Diazepan-1-yl)pyridin-2-yl)-6-(1-(2,2,2-trifluoroethyl)-1H-pyrazol-4-yl)-1H-pyrazolo[4,3-c]pyridine], in that order: 344 nM and 0.081 nM. The corresponding values for `N#CCn1cc(-c2cc3c(cn2)cnn3-c2cccc(N3CCCNCC3)n2)cn1` [Compound 155, 2-(4-(1-(6-(1,4-Diazepan-1-yl)pyridin-2-yl)-1H-pyrazolo[4,3-c]pyridin-6-yl)-1H-pyrazol-1-yl)acetonitrile] are 518 nM and 0.144 nM. The corresponding values for `CCc1cncc(-c2cc3c(cn2)cnn3-c2cccc(N3CCC[C@H](N)C3)n2)n1` [Compound 156, (3S)-1-[6-[6-(6-ethylpyrazin-2-yl)pyrazolo[4,3-c]pyridin-1-yl]-2-pyridyl]piperidin-3-amine] are 1400 nM and 0.047 nM. `FC(F)Cn1cc(-c2cc3c(cn2)cnn3-c2cccc(N3CCCNCC3)n2)cn1` [Compound 162, 1-(6-(1,4-Diazepan-1-yl)pyridin-2-yl)-6-(1-(2,2-difluoroethyl)-1H-pyrazol-4-yl)-1H-pyrazolo[4,3-c]pyridine]: the 50% inhibitory concentration (IC50) in the assay on BaF3 PIM1 cells (setting [1]) is 175 nM. Also, the inhibition constant (Ki) on PIM1 is 0.416 nM. For `Cc1cncc(-c2cc3c(cn2)cnn3-c2cccc(C3CCNCC3)n2)n1` [Compound 166, 6-(6-methylpyrazin-2-yl)-1-[6-(4-piperidyl)-2-pyridyl]pyrazolo[4,3-c]pyridine], in that order: 270 nM and 0.517 nM. The corresponding values for `Cc1cncc(-c2cc3c(cn2)cnn3-c2cccc(N3CC[C@H](N)C3)n2)n1` [Compound 167, (3S)-1-[6-[6-(6-methylpyrazin-2-yl)pyrazolo[4,3-c]pyridin-1-yl]-2-pyridyl]pyrrolidin-3-amine] are 546 nM and 0.773 nM.

`Cc1cncc(-c2cc3c(cn2)cnn3-c2cccc(N3CC[C@@H](N)C3)n2)n1` [Compound 168, (3R)-1-[6-[6-(6-methylpyrazin-2-yl)pyrazolo[4,3-c]pyridin-1-yl]-2-pyridyl]pyrrolidin-3-amine]: the IC50 in the assay on BaF3 PIM1 cells (setting [1]) came to 75.5 nM. The inhibition constant Ki at PIM1 came out at 0.977 nM. On to `Cc1cncc(-c2cc3c(cn2)cnn3-c2ccc(Cl)c(N3CCC[C@H](N)C3)n2)n1` [Compound 176, (S)-1-(3-chloro-6-(6-(6-methylpyrazin-2-yl)-1H-pyrazolo[4,3-c]pyridin-1-yl)pyridin-2-yl)piperidin-3-amine], for which the 50% inhibitory concentration (IC50) in the assay with BaF3 PIM1 cells (setting [1]) came to 533 nM. For the same compound, the Ki on PIM1 came to 0.073 nM. Turning to `c1cc(N2CCCNCC2)nc(-n2ncc3cnc(-c4cn[nH]c4)cc32)c1` [Compound 180, 1-(6-(1,4-Diazepan-1-yl)pyridin-2-yl)-6-(1H-pyrazol-4-yl)-1H-pyrazolo[4,3-c]pyridine], the concentration for half-maximal inhibition (IC50) with BaF3 PIM1 cells (setting [1]) came to 745 nM. Besides, the Ki at PIM1 was 0.122 nM.
